Measured values from patent publication US6800658B2, “Substituted diphenyl indanone, indane and indole compounds and analogues thereof useful for the treatment of prevention of diseases characterized by abnormal cell proliferation” (Children's Medical Center Corporation, priority 1997, dated 2004).

System: U118MG
Test: SRB antiproliferative assay, U118MG
Type: cell-based
Conditions: Homo sapiens, U-118-MG, 120 h; CNS; 5% FCS, 5 Day Incubation
From the text: The cells were passaged using Trypsin (Gibco).

O/N=C1\CC(c2ccc(Cl)cc2)(c2ccc(Cl)cc2)c2ccc(Cl)cc21 [Compound 11]
IC50: > 10 µM
